## Measured affinities in a library of Ab-95 light chain variants

The measurements come from Engelhart et al. 2022 (doi:10.1038/s41597-022-01779-4) through the FLAb antibody collection.

Antigen: PDVDLGDISGINAS, a 14-residue peptide of the SARS-CoV-2 spike HR2 region.

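AAYL52 was designed without a model: most single CDR substitutions and a random sample of double and triple ones. Affinity was read by AlphaSeq, a pooled yeast mating assay with surface-displayed partners. The frequency of each diploid, read from paired DNA barcodes, reflects how well the two displayed proteins bind. Scores were corrected for input abundance and mapped to Kd with protein pairs of known affinity run in the same pool. The assay was run in three technical replicates.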

Each scFv is VH, a (GGGGS)3 linker, VL, as in the parent Ab-95, and differs from it in the CDRs of the light chain only.
VH: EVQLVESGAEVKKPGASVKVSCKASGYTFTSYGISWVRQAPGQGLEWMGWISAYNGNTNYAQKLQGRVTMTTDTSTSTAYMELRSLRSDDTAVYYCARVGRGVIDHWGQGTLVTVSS
VL: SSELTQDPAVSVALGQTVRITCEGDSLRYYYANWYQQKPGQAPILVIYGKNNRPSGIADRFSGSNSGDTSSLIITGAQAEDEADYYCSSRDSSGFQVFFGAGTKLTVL

The parent's light chain CDRs are EGDSLRYYYAN, GKNNRPS, SSRDSSGFQVF; each variant's own CDRs replace them letter for letter. The Kd shown is the geometric mean over detected replicates; a lower Kd is a better binder. An entry "nd" has no value in the source: the pair was not observed among the diploids in any replicate. This suggests poor binding but is not conclusive.

CDR-L1,CDR-L2,CDR-L3,apparent Kd,replicates with signal
EGDSLRYYYAN,GKNNRPP,SSRDSSKFQNF,68 µM,1 of 3
EPDSERYYYAN,GKNNRPS,SSRDSSGHQVF,13 µM,1 of 3
EGDSLRYYYAN,GKNNRPE,SSKDSSGFQDF,6.1 µM,3 of 3
EGDSLRYYYAN,GKNNRKS,FSIDSSGFQVF,2.1 µM,3 of 3
EGDSLRYMYTG,GKNNRPS,SSRDSSGFQVF,5.9 µM,1 of 3
EGDDLRYYYAN,GKNIRPS,SSRDSSGFQVF,970 nM,3 of 3
EGDSLRYYYAN,GKNNRTS,SERPSSGFQVF,nd,0 of 3
EYDSLRYYYAN,GKNNRPS,SSRWSSGFQVQ,nd,0 of 3
YGDSLRYWYAN,GKNNRPS,SSRDSSGFRVF,1.8 µM,1 of 3
EGDSLRYMYAN,GKNNRPS,SSRDISGFQVA,19 nM,3 of 3
EGDSLRIYYAN,GKNNRPS,SSRDHSGFMVF,7.9 µM,3 of 3
EGDSLRYWYAV,GKNNRPS,SSIDSSGFQVF,7.7 µM,2 of 3
EGDELDYYYAN,GKNNRPS,SSRDSSGRQVF,8.3 µM,3 of 3
EGDSLRKYYAN,KKNNRPS,SMRDSSGFQVF,3.9 µM,2 of 3
EGYSLRYYYAN,GKNNRPS,SSRDSSGFQQF,22 µM,1 of 3
EQDSLRYYYAN,GKNNRPS,SKKDSSGFQVF,1.3 µM,1 of 3
EGGSLRYYYTN,GKNNRMS,SSRDSSGFQVF,3.6 µM,3 of 3
EGDSLRYYYAN,GKNNHPS,SSRDSSHCQVF,1.4 µM,3 of 3
EGDSHRYYIAN,AKNNRPS,SSRDSSGFQVF,680 nM,1 of 3
EGDSLRYYYSN,GKNNRPY,CSRDSSGFQVF,610 nM,3 of 3
EGLSLYYYYAN,GKNNRPR,SSRDSSGFQVF,6.5 µM,2 of 3
ESDSLRYYYAN,KKNNRPS,SSRYSSGFQVF,23 µM,1 of 3
MGDSGRYYYAN,GKNNRPS,QSRDSSGFQVF,8.3 µM,2 of 3
EGDSLRYYYAN,GKNNRPS,VSADSSGFQVF,240 nM,3 of 3
EGDSLRYYYAN,SKNNQPS,SSRDSSGFQVF,35 µM,2 of 3
EGDSLRYYYAE,GKNNRPS,SSRDSPGFYVF,22 µM,2 of 3
EGDALRYYYAN,GKNNRPS,SFRDSQGFQVF,81 nM,3 of 3
EGDSLRNYYAN,GKNNRMS,SSRDSSGFQVH,300 nM,3 of 3
EGDSLRYYIAN,GKNNTPE,SSRDSSGFQVF,6.6 µM,3 of 3
VGDSYRYYYAN,GKNNRPS,SSRDSSDFQVF,71 µM,3 of 3
EGDSLKYYYAN,GKNNRRS,SSMDSSGFQVF,2.7 µM,2 of 3
EMDSLRYYLAN,GKNNRPP,SSRDSSGFQVF,2.3 µM,1 of 3
EGDSLRYYYAN,GKNNRIS,SSYDSSGRQVF,1.6 µM,2 of 3
EGDSLRYYYAN,GKNNRPW,SSDDSSGFQPF,560 nM,2 of 3
EGDSLKYYYAN,GKNTRPV,SSRDSSGFQVF,120 nM,3 of 3
EGDSIRYYYAN,GKNNRPS,SFRDSSGFQVF,3.5 µM,2 of 3
EGDSLRIEYKN,GKNNRPS,SSRDSSGFQVF,nd,0 of 3
EGDSQRYYYAN,GKMNRPS,SSRWSSGFQVF,7.2 µM,2 of 3
EGDSLRYEYAN,GKNNRPS,SSRDSSGFYTF,39 nM,3 of 3
ELDSLRYYYAN,GKNNRPG,SSRDSSGFCVF,1.8 µM,1 of 3
EGDSLRYMYAN,GKNNRPS,SFRDSCGFQVF,29 nM,3 of 3
EYCSLRYYYAN,GKNNRPS,SSRDWSGFQVF,10 µM,1 of 3
EGDSLRYYYAN,GKNNRPS,SDRDSSSFQVF,600 nM,3 of 3
EGDSLRYYYAC,GKNNCPS,SSRDSSGFQRF,15 µM,2 of 3
EGDSLRYYYAN,GKNNPPS,SSNDSSGFQVF,7.3 µM,1 of 3
EGDSLRYYYAW,GKNNRPM,SSRESSGFQVF,1.2 µM,3 of 3
EGDILRYYYAN,GKNNTPS,SSFDSSGFQVF,nd,0 of 3
ERDSLRYTYAN,GKNNRPS,QSRDSSGFQVF,440 nM,3 of 3
EGDSLRYYYAN,GKTNYPS,KSRDSSGFQVF,70 µM,2 of 3
EGDSLRYYYAN,GNINRPS,SDRDSSGFQVF,nd,0 of 3
EGDSLRYYYAN,GKYNRPS,SSRGSSGFQVF,3.2 µM,2 of 3
EGDSLRYYYAN,GKCNRPS,DSRDSSGFQGF,nd,0 of 3

The first 8 entries again:

CDR-L1,CDR-L2,CDR-L3,apparent Kd,replicates with signal
EGDSLRYYYAN,GKNNRPP,SSRDSSKFQNF,68 µM,1 of 3
EPDSERYYYAN,GKNNRPS,SSRDSSGHQVF,13 µM,1 of 3
EGDSLRYYYAN,GKNNRPE,SSKDSSGFQDF,6.1 µM,3 of 3
EGDSLRYYYAN,GKNNRKS,FSIDSSGFQVF,2.1 µM,3 of 3
EGDSLRYMYTG,GKNNRPS,SSRDSSGFQVF,5.9 µM,1 of 3
EGDDLRYYYAN,GKNIRPS,SSRDSSGFQVF,970 nM,3 of 3
EGDSLRYYYAN,GKNNRTS,SERPSSGFQVF,nd,0 of 3
EYDSLRYYYAN,GKNNRPS,SSRWSSGFQVQ,nd,0 of 3

Parent in this assay: reference entry 200 nM, copy in this library 180 nM. As a blank, each scFv also met three strains without target: over library AAYL52, 28% of these pairings were detected, typically at 8.2 µM and seldom below 800 nM.